The target of the assay is EGFR on BxPC-3 cells (UniProt P00533). Kind of assay: cell-based or functional assay.

SI-79X1 (bispecific antibody) had a *EC50 (pM), TDCC, depletion of luciferized BxPC3 cells with activated T cells of 24.6 pM.
SI-79X5 (bispecific antibody): the *EC50 (pM), TDCC, depletion of luciferized BxPC3 cells with activated T cells came out at 30.7 pM.

Values taken from patent US20250353917A1.
